{
  "sequences": {"note": "Amino acid sequences for entries named in this document (tags omitted).", "UniProt P21554, whole entry": "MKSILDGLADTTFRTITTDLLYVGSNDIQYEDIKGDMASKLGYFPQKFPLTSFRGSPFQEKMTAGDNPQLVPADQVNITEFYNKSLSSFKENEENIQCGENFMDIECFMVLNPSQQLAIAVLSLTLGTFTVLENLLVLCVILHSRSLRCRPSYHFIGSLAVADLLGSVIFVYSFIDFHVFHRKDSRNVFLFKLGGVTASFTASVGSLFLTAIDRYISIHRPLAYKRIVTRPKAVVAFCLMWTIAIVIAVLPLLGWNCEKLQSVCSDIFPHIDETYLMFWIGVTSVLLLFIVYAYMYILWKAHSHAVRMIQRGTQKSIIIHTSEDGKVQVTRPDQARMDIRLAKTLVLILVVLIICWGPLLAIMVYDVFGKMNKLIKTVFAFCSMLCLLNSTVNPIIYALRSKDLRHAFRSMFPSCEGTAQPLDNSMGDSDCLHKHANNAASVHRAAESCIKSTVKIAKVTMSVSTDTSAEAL"},
  "source": "paper PMC10343475",
  "about": "“Systematic Modification of the Substitution Pattern of the 7-Hydroxy-5-oxopyrazolo[4,3-b]pyridine-6-carboxamide Scaffold Enabled the Discovery of New Ligands with High Affinity and Selectivity for the Cannabinoid Type 2 Receptor” (Molecules, 2023)",
  "biological_target": "human recombinant CB1 receptor (Homo sapiens, UniProt P21554)",
  "assay": "Competition binding assay, displacement of [3H]-CP-55,940, CB1R",
  "details": "membranes from HEK cells, mean ± SD, at least three experiments in duplicate",
  "method": "Binding at equilibrium was performed as previously reported. […] All compounds were tested following the procedure described by the manufacturer (Perkin Elmer, Italy). […] Ki values were calculated by applying the Cheng–Prusoff equation to the IC50 values (obtained by GraphPad) for the displacement of the bound radioligand by increasing concentrations of the test compound.",
  "data": [
    {"smiles": "Cn1cc2c(n1)c(O)c(C(=O)NC13CC4CC(CC(C4)C1)C3)c(=O)n2Cc1ccccc1", "note": "[Compound 26, N-(Adamantan-1-yl)-4-benzyl-7-hydroxy-2-methyl-5-oxo-4,5-dihydro-2H-pyrazolo[4,3-b]pyridine-6-carboxamide]", "values": [
      {"measurement": "Ki", "result": "116 ± 23.7", "unit": "nM"}
    ]}
  ]
}
